{"source": "patent US4772606A", "about": "“Purine derivatives” (Warner-Lambert Company, priority 1985, dated 1988)", "origin": "cited, not measured here", "system": "PNP", "conditions": "reported by R. Parks et al.; cited from earlier work", "data": [{"smiles": "Nc1nc2nc(N)[nH]c2c(=O)[nH]1", "note": "[8-Aminoguanine]", "values": [{"measurement": "PNP-activity", "result": "PNP-activity"}]}]}
